# PubChem BioAssay AID2797 (The Scripps Research Institute Molecular Screening Center, 2010)
# Protein sequences, listed by entry. Tags and fused reporters are not part of them.
# UniProt P37288, whole entry: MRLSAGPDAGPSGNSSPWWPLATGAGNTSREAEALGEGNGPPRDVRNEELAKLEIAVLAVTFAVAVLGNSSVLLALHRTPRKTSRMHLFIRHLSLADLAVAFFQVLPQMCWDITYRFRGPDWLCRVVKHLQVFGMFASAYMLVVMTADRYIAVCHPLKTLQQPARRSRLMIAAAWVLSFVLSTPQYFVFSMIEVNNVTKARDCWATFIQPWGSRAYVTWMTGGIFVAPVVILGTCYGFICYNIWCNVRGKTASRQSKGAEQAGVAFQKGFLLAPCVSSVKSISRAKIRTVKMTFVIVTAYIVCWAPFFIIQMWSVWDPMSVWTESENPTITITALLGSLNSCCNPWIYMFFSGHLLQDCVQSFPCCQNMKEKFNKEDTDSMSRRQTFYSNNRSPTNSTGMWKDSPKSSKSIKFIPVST
# Only a part is listed here, and it is no random draw. Some results for these compounds are left out of this collection, so the calls shown say nothing about other tests. Active and inactive are the calls of the source.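 The calls were made as follows: active = activation above the mean activation of all tested compounds plus 3 SD, per screening run (cut at about 20% in these data); inactive = the rest.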
# Target: Vasopressin V1a receptor (Homo sapiens) (UniProt P37288)
# Test: agonists of human V1a receptor, primary screen, counter-screen for OXTR agonist project, fluorescence, CHO-V1R cells (AID 2797);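 also: signal is peak over basal fluorescence ratio across a 100 second FLIPR read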
# Conditions: Fluo-8 calcium fluorescence, agonist mode, at 3 µM, stronger effect = higher value, 0% DMSO, 100% 3 nM vasopressin
row,Structure (SMILES),activation
1,COc1ccc(Br)c(C(=O)NCC2(N3CCCCC3)CCCCC2)c1,inactive: -0.54%
2,CC(C)Oc1ccc(C(=O)NCC2(N(C)C)CCCCC2)cc1,inactive: 1.68%
3,CN(C)c1cccc(C(=O)NCC2(N(C)C)CCCCC2)c1,inactive: -0.99%
4,O=C(OC1CN2CCC1CC2)C(CO)(c1ccccc1)c1ccccc1 (centres undefined),inactive: 0.96%
5,COc1cccc(C(=O)NCC2(N3CCCCC3)CCCCC2)c1,inactive: 0.89%
6,COc1ccc(Cl)cc1C(=O)NCC1(N(C)C)CCCCC1,inactive: -0.27%
7,O=C(NCC1(N2CCCCC2)CCCCC1)c1cccc(Cl)c1,inactive: 0.98%
8,CN(C)C1(CNC(=O)c2ccc(Br)cc2)CCCCC1,inactive: -0.57%
9,COc1cc(C(=O)NCC2(N(C)C)CCCCC2)c([N+](=O)[O-])cc1OC,inactive: 0.57%
10,C=CCN1CCN(CCOC(=O)C(O)(c2ccccc2)c2ccccc2)CC1,inactive: -0.17%
11,O=C(NCC1(N2CCCCC2)CCCCC1)c1cc(F)c(F)cc1Cl,inactive: 0.35%
12,COc1ccc(C(=O)NCC2(N(C)C)CCCCC2)cc1,inactive: 2.04%
13,CCN1CCCC(OC(=O)C2(O)c3ccccc3C=Cc3ccccc32)C1 (centres undefined),inactive: 0.84%
14,Cc1cc(C(=O)NCC2(N3CCCCC3)CCCCC2)ccc1[N+](=O)[O-],inactive: -0.54%
15,O=C(NCC1(N2CCCCC2)CCCCC1)c1cccc(Br)c1,inactive: 0.88%
16,Cc1ccccc1C(=O)NCC1(N2CCCCC2)CCCCC1,inactive: -0.17%
17,CN(C)c1ccc(C(=O)NCC2(N(C)C)CCCCC2)cc1,inactive: 0.32%
18,CN(C)C1CCCC1OC(=O)C(O)(c1ccccc1)c1ccccc1 (centres undefined),inactive: 1.45%
19,CCN(CC)CC(C)C(C)OC(=O)C(O)(c1ccccc1)c1ccccc1 (centres undefined),inactive: 1.05%
20,COc1cc(SC)ccc1C(=O)NCC1(N(C)C)CCCCC1,inactive: 0.39%
21,CC(C)N1C(=O)CC2(CCN(CCOC(=O)C(O)(c3ccccc3)c3ccccc3)CC2)C1=O,inactive: 0.8%
22,Cc1ccc(C(=O)NCC2(N3CCCCC3)CCCCC2)cc1,inactive: 0.8%
23,O=C(NCC1(N2CCCCC2)CCCCC1)c1cc([N+](=O)[O-])ccc1Cl,inactive: -1.12%
24,CN1[C@@H]2CC[C@H]1CC(OC(=O)C(O)(c1ccccc1)c1ccccc1)C2 (some centres undefined),inactive: 0.63%
